Data reported in ChEMBL document CHEMBL5321194 (J Med Chem, 2023).

Amino acid sequences for entries named in this document (tags omitted). A change or cut given only in a name is not applied to a line headed by its entry.
UniProt P49759: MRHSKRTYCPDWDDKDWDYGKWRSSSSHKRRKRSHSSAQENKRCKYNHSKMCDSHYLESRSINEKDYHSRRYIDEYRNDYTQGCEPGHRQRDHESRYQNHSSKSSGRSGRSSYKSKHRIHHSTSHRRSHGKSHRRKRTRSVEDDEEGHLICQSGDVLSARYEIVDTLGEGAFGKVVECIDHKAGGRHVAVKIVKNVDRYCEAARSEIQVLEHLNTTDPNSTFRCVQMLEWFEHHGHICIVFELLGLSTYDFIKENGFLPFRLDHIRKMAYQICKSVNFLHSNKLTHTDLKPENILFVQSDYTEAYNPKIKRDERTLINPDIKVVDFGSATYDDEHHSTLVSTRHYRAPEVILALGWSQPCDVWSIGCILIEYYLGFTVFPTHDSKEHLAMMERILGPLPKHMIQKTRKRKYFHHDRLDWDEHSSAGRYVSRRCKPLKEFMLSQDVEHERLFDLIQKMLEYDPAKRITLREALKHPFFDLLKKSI

Target: Dual specificity protein kinase CLK1 (Homo sapiens, UniProt P49759)
Test: Inhibition of human CLK1 using myelin basic protein as substrate in presence of [gamma-33p]-ATP by radiometric hotspot kinase

CCc1cc2c(cc1-c1cccc(S(=O)(=O)F)c1)C(C)(C)c1[nH]c3cc(C#N)ccc3c1C2=O
IC50: 422 nM
